For one assay, the target named is β2* nAChR (Homo sapiens, UniProt P17787). Conditions: nAChR subtype: β2; cited from earlier work.
For assay [1], the system named is rats with a unilateral 6-hydroxydopamine lesion. Nature of the assay: LIDs in rats with a unilateral 6-hydroxydopamine lesion. Conditions: parkinsonian rat model of LIDs. In kind it is in vivo.

Sequences of proteins named here, by UniProt entry; tags and fusion partners are left off. Residues count along the entry.
UniProt P17787, 26-502 limits assumed: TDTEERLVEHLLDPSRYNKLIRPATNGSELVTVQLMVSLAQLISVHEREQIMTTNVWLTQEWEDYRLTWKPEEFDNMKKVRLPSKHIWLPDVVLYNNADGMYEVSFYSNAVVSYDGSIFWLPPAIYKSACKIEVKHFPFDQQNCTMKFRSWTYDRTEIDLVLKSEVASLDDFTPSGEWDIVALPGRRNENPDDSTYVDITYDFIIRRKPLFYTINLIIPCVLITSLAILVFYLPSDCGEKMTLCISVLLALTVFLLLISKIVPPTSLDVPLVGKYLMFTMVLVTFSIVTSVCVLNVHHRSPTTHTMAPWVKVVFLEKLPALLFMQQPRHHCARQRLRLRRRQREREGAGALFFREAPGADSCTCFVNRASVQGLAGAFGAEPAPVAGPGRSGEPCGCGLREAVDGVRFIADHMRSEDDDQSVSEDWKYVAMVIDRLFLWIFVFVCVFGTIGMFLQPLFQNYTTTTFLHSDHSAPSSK

pKi: −log10 of the molar value.

One may read the pKi as the negative decadic logarithm of the Ki, by convention in mol/L. Take `O=C(C1CC1)N1CC2CC(C1)N2`: the negative logarithm of the Ki (pKi) at β2* nAChR is 8.52 to 9.00. Also, the “reduction of LIDs” value in assay [1] was “reduced LIDs to varying extents”.

Values taken from EP3727043B1 (Golden Gait Biotech, S.L., priority 2017, dated 2019).
